These results are taken from US20100099847A1 (Kyowa Hakko Bio Co., Ltd., priority 2006, published 2010).

For series [1] the following is noted: width of approximately 300 crystals. How it is done: The crystals were observed and photographed using a VH-8000 digital microscope (Keyence Corporation). The width of approximately 300 crystals was measured and calculations performed.
The conditions of series [2]: volume median diameter. On the procedure:
This is synonymous with volume median diameter, and it was measured using a laser diffraction and scattering particle diameter analyzer, the LMS-24 SK Laser Micron Sizer (Seishin Enterprise Co. Ltd.) and expressed as a cumulative 50% volume particle diameter.

Substance “Glutathione (gamma-L-glutamyl-L-cysteinyl glycine) [Example 1]” gave an Average width in series [1] of 25 μm. The substance further gave an Average particle diameter in series [2] of 52 μm.
